Here are results for one compound from patent US20100304418A1, “Compositions and Methods for Monitoring Flow Through Fluid Conducting and Containment Systems” (priority 2007, published 2010).

One series deals with Skeletonema costatum. Put plainly: Toxicity to marine unicellular algae, ISO DP 10253 (1998) Standard Method. The settings on record: at 4462.48 mg/L.
Series [1] can be described thus: Robustness of biotin in contact with corrosion inhibitor. The settings on record: 50 mM, 1:10 with corrosion inhibitor TROS787c, 2 hours, then 1:5000 in formation water.

In the case of `O=C(O)CCCC[C@@H]1SC[C@@H]2NC(=O)N[C@@H]21` [biotin], the “toxic effect to S. costatum” value with Skeletonema costatum was “no toxic effect”. The “effect of corrosion inhibitor on biotin” value in series [1] is “No significant affect”.
